Results: patent US20060252670A1, “Method of reducing drug-induced adverse side effects in a patient” (Intercept Pharmaceuticals Inc., priority 2004, published 2006)

Tested on: liver fibrosis induced by porcine serum
Experiment: Liver fibrosis induced by 8-week porcine serum administration to rats: 6-ECDCA, rosiglitazone and combination
Settings: for ALP / ALT / Bilirubin: porcine serum rats, 8 weeks, mean ± SE

## CN(CCOc1ccc(CC2SC(=O)NC2=O)cc1)c1ccccn1 (stereo not shown) [rosiglitazone, reference compound]
1 and 3 mg/kg, P>0.05 versus control and porcine serum-treated rats
  liver function as measured by plasma ALT, alkaline phosphatase and bilirubin: did not affect liver function
Oral 1 mg/kg (each drug)
  ALP: 23.4 ± 3.7 U/dl
  ALT: 47.6 ± 4.2 U/L
  Bilirubin: 0.3 ± 0.06 mg/dL
Oral 3 mg/kg (each drug)
  ALP: 25.6 ± 3.1 U/dl
  ALT: 40.7 ± 5.2 U/L
  Bilirubin: 0.3 ± 0.07 mg/dL
